Literature values as cited in PMC3983361.

The chains behind the UniProt entries cited, without tags or fusion partners. Residues count along the entry.
UniProt P05067, 672-711: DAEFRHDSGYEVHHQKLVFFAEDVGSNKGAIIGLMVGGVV
UniProt P02649, 19-317: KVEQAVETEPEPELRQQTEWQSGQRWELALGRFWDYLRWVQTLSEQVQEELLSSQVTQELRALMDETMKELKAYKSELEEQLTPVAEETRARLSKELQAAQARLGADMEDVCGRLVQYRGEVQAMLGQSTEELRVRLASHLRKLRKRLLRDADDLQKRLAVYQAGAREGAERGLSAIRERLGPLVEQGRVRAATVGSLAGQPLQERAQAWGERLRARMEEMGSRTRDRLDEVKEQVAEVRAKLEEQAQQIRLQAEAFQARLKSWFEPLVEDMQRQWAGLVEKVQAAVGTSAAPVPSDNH

Molecular target: Aβ40 (Homo sapiens) (UniProt P05067)

Kd: 0.02 µM
Substance: apoE (from UniProt P02649)
